From patent US9751831B2, “Blood brain barrier-penetrating oximes for cholistenerases reactivation” (dated 2017) come the findings set out here.

Sequences of proteins named here, by UniProt entry; tags and fusion partners are left off. A change or cut given only in a name is not applied to a line headed by its entry. Residues count along the entry.
UniProt P06276, 29-602 limits assumed: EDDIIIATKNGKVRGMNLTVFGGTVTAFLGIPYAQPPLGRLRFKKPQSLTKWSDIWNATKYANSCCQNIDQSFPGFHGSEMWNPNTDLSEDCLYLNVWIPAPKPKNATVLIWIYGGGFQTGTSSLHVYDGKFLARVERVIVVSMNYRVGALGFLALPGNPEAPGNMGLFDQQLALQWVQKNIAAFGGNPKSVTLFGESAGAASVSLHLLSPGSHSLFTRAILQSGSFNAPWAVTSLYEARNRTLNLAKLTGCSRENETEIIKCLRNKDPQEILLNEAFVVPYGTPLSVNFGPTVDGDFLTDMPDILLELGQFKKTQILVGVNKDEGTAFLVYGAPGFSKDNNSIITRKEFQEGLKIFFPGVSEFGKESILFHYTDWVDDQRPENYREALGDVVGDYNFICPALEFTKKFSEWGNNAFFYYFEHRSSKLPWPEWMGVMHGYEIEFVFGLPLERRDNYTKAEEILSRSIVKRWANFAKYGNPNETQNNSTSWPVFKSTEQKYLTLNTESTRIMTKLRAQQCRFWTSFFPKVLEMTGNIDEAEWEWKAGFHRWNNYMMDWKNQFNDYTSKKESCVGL
UniProt P22303: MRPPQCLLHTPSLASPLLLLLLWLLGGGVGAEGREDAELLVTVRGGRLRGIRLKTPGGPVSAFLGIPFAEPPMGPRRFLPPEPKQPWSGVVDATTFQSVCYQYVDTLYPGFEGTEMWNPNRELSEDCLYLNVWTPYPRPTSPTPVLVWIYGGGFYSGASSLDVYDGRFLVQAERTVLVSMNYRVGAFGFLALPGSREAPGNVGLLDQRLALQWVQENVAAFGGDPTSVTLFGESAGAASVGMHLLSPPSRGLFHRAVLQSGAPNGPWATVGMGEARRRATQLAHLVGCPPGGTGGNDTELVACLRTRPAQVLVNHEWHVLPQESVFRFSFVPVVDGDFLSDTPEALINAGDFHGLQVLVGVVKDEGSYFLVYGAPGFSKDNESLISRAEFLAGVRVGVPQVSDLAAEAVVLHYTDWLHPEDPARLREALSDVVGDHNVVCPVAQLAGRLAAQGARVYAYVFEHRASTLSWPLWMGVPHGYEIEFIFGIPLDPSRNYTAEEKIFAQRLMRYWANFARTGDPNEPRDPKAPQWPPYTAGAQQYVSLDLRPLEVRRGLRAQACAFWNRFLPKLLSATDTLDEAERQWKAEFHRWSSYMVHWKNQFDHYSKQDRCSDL

In one assay the target is hBuChE (Homo sapiens, UniProt P06276). Briefly: Reactivation of OP (nerve agent model compound)-inhibited hBuChE, modified Ellman's assay. Conditions: for Relative reactivation, BChE, Sp-GB / Relative reactivation, BChE, Sp-GF / Relative reactivation, BChE, Sp-GA/ETP: mean ± standard deviation; for Reactivation of Sp-GBC-inhibited ChEs, Relative activity [%], hBuChE / Reactivation of Sp-GF-SMe-inhibited ChEs, Relative activity [%], hBuChE: 100 μM oxime, 20 min incubation, relative to sample not treated with OP.

The next assay has as its target hAChE (Homo sapiens, UniProt P22303). The assay can be described thus: Reactivation of OP (nerve agent model compound)-inhibited hAChE, modified Ellman's assay. The settings on record: for Relative reactivation, AChE, Sp-GA/ETP / Relative reactivation, AChE, Sp-GB / Relative reactivation, AChE, Sp-GF: mean ± standard deviation; for Reactivation of Sp-GBC-inhibited ChEs, Relative activity [%], hAChE / Reactivation of Sp-GF-SMe-inhibited ChEs, Relative activity [%], hAChE: 100 μM oxime, relative to sample not treated with OP, 20 min per footnote (1 h).

Where [1] appears, read: Table 4, Sp-GB (sarin model)-inhibited hBChE.
The mark [2] stands for this setting: Table 4, Sp-GF (cyclosarin model)-inhibited hBChE.
The mark [3] stands for this setting: Table 4, tabun model (Sp-GA)/Echothiophate-inhibited hBChE.
[4] abbreviates: Table 5, Sp-GA/ETP-inhibited hBChE.
Where [5] appears, read: Table 5, Sp-GA/ETP-inhibited hAChE.
Where [6] appears, read: Table 4, Sp-GB (sarin model)-inhibited hAChE.
Setting [7] is: Table 4, Sp-GF (cyclosarin model)-inhibited hAChE.
Where [8] appears, read: Table 4, tabun model (Sp-GA)/Echothiophate-inhibited hAChE.

With `CC(C)CCN=C(C=NO)N(C)C.Cl`, on hBuChE (setting [1]), the “Relative reactivation, BChE, Sp-GB” value was found to be 0.55 ± 0.04. The “Relative reactivation, BChE, Sp-GF” value at hBuChE (setting [2]) came out at 0.84 ± 0.12. Also, the “Relative reactivation, BChE, Sp-GA/ETP” value at hBuChE (setting [3]) was 0.06 ± 0.01.
With `CN(C)C(C=NO)=Nc1ccccc1.Cl`, on hBuChE, the “Reactivation of Sp-GBC-inhibited ChEs, Relative activity [%], hBuChE” value is listed as 79% and the “Reactivation of Sp-GF-SMe-inhibited ChEs, Relative activity [%], hBuChE” value is 73%. In addition, the “Relative reactivation, BChE, Sp-GB” value at hBuChE (setting [1]) stood at 0.79 ± 0.04. Besides, at hBuChE (setting [2]), the “Relative reactivation, BChE, Sp-GF” value is recorded as 0.73 ± 0.03. At hBuChE (setting [3]), the “Relative reactivation, BChE, Sp-GA/ETP” value came to 0.18 ± 0.01.
For `Cl.ON=CC1=NCCCN1Cc1ccc(Cl)cc1Cl`, the “Relative reactivation, BChE, Sp-GA/ETP” value on hBuChE (setting [4]) was found to be 0.34 ± 0.07. Moreover, the “Relative reactivation, BChE, Sp-GB” value on hBuChE (Table 5, Sp-GB-inhibited hBChE) is reported as 0.86 ± 0.01. Besides, at hBuChE (Table 5, Sp-GF-inhibited hBChE), the “Relative reactivation, BChE, Sp-GF” value turned out to be 0.80 ± 0.13.
`Cl.ON=CC1=NCCN1Cc1ccccc1`: at hBuChE, the “Reactivation of Sp-GBC-inhibited ChEs, Relative activity [%], hBuChE” value is 61% and the “Reactivation of Sp-GF-SMe-inhibited ChEs, Relative activity [%], hBuChE” value worked out at 90%.
“1-(3,5-Bis(trifluoromethyl)benzyl)-1,4,5,6-tetrallydropyrimidine-2-carbaldehyde oxime hydrochloride”: the “Relative reactivation, AChE, Sp-GA/ETP” value at hAChE (setting [5]) was found to be 0.33 ± 0.01. Further, on hAChE (Table 5, Sp-GB-inhibited hAChE), the “Relative reactivation, AChE, Sp-GB” value is reported as 0.22 ± 0.01. The “Relative reactivation, AChE, Sp-GF” value at hAChE (Table 5, Sp-GF-inhibited hAChE) was 0.22 ± 0.01. The “Relative reactivation, BChE, Sp-GA/ETP” value on hBuChE (setting [4]) turned out to be 0.32 ± 0.03. The “Relative reactivation, BChE, Sp-GB” value at hBuChE (Table 5, Sp-GB-inhibited hBChE) is reported as 1.02 ± 0.02. Also, at hBuChE (Table 5, Sp-GF-inhibited hBChE), the “Relative reactivation, BChE, Sp-GF” value stood at 1.09 ± 0.20.
On to “1-Butyl-4,5-dihydro-1H-imidazole-2-carbaldehyde oxime hydro-chloride”, for which the “Relative reactivation, AChE, Sp-GA/ETP” value at hAChE (setting [5]) is given as 0.29 ± 0.01. Further, at hAChE (Table 5, Sp-GB-inhibited hAChE), the “Relative reactivation, AChE, Sp-GB” value stood at 0.60 ± 0.1. For the same compound, the “Relative reactivation, AChE, Sp-GF” value on hAChE (Table 5, Sp-GF-inhibited hAChE) is recorded as 0.21 ± 0.02. For the same compound, on hBuChE (setting [4]), the “Relative reactivation, BChE, Sp-GA/ETP” value is 0.08 ± 0.03. Besides, on hBuChE (Table 5, Sp-GB-inhibited hBChE), the “Relative reactivation, BChE, Sp-GB” value was found to be 0.46 ± 0.02. Also, on hBuChE (Table 5, Sp-GF-inhibited hBChE), the “Relative reactivation, BChE, Sp-GF” value is on record as 0.76 ± 0.08.
As for “2-(Hydroxyimino)-N,N-dimethyl-N′-pentylacetimidamide hydro-chloride salt”, at hAChE (setting [6]), the “Relative reactivation, AChE, Sp-GB” value is listed as 0.42 ± 0.03. Further, the “Relative reactivation, AChE, Sp-GF” value at hAChE (setting [7]) was 0.11 ± 0.01. Further, the “Relative reactivation, AChE, Sp-GA/ETP” value at hAChE (setting [8]) was 0.30 ± 0.01. In addition, the “Relative reactivation, BChE, Sp-GB” value at hBuChE (setting [1]) was 0.84 ± 0.01. In addition, the “Relative reactivation, BChE, Sp-GF” value at hBuChE (setting [2]) turned out to be 0.86 ± 0.11. Besides, the “Relative reactivation, BChE, Sp-GA/ETP” value at hBuChE (setting [3]) worked out at 0.11 ± 0.04.
With “2-(Hydroxyimino)-N,N-dimethyl-N′-propylacetimidamide hydro-chloride”, on hAChE, the “Reactivation of Sp-GBC-inhibited ChEs, Relative activity [%], hAChE” value was found to be 23% and the “Reactivation of Sp-GF-SMe-inhibited ChEs, Relative activity [%], hAChE” value was determined as 7%. Further, the “Relative reactivation, AChE, Sp-GB” value on hAChE (setting [6]) was 0.51 ± 0.05. Also, the “Relative reactivation, AChE, Sp-GF” value at hAChE (setting [7]) is reported as 0.09 ± 0.01. In addition, the “Relative reactivation, AChE, Sp-GA/ETP” value at hAChE (setting [8]) turned out to be 0.34 ± 0.03. At hBuChE, the “Reactivation of Sp-GBC-inhibited ChEs, Relative activity [%], hBuChE” value worked out at 92% and the “Reactivation of Sp-GF-SMe-inhibited ChEs, Relative activity [%], hBuChE” value amounted to 89%. On hBuChE (setting [1]), the “Relative reactivation, BChE, Sp-GB” value worked out at 0.98 ± 0.05. Also, at hBuChE (setting [2]), the “Relative reactivation, BChE, Sp-GF” value was found to be 1.02 ± 0.11. Further, on hBuChE (setting [3]), the “Relative reactivation, BChE, Sp-GA/ETP” value is 0.26 ± 0.
“2-(Hydroxyimino)-N′-(2-methoxyethyl)-N,N-dimethyl-acetimid-amide hydrochloride salt”: the “Relative reactivation, AChE, Sp-GB” value on hAChE (setting [6]) worked out at 0.20 ± 0.01. Also, the “Relative reactivation, AChE, Sp-GF” value at hAChE (setting [7]) came out at 0.03 ± 0. In addition, at hAChE (setting [8]), the “Relative reactivation, AChE, Sp-GA/ETP” value is 0.08 ± 0.03. The “Relative reactivation, BChE, Sp-GB” value at hBuChE (setting [1]) was determined as 0.51 ± 0.04. The “Relative reactivation, BChE, Sp-GF” value at hBuChE (setting [2]) came to 0.33 ± 0.01. Besides, the “Relative reactivation, BChE, Sp-GA/ETP” value on hBuChE (setting [3]) amounted to 0.07 ± 0.02.
With “N′-Benzyl-2-(hydroxyimino)-N,N-dimethylacetimidamide hydro-chloride salt”, on hAChE, the “Reactivation of Sp-GBC-inhibited ChEs, Relative activity [%], hAChE” value is listed as 6% and the “Reactivation of Sp-GF-SMe-inhibited ChEs, Relative activity [%], hAChE” value is on record as 2%. Moreover, the “Relative reactivation, AChE, Sp-GB” value on hAChE (setting [6]) turned out to be 0.15 ± 0.01. For the same compound, the “Relative reactivation, AChE, Sp-GF” value at hAChE (setting [7]) is 0.05 ± 0.01. Further, the “Relative reactivation, AChE, Sp-GA/ETP” value at hAChE (setting [8]) was found to be 0.11 ± 0.01. On hBuChE, the “Reactivation of Sp-GBC-inhibited ChEs, Relative activity [%], hBuChE” value worked out at 47% and the “Reactivation of Sp-GF-SMe-inhibited ChEs, Relative activity [%], hBuChE” value is given as 78%. For the same compound, at hBuChE (setting [1]), the “Relative reactivation, BChE, Sp-GB” value stood at 0.47 ± 0.05. Moreover, at hBuChE (setting [2]), the “Relative reactivation, BChE, Sp-GF” value is listed as 0.78 ± 0.03. For the same compound, the “Relative reactivation, BChE, Sp-GA/ETP” value on hBuChE (setting [3]) stood at 0.04 ± 0.
As to “N′-Cyclobutyl-2-(hydroxyimino)-N,N-dimethylacetimid-amide hydrochloride salt”, the “Relative reactivation, AChE, Sp-GB” value at hAChE (setting [6]) is reported as 0.51 ± 0.04. In addition, the “Relative reactivation, AChE, Sp-GF” value at hAChE (setting [7]) came to 0.12 ± 0.01. Further, at hAChE (setting [8]), the “Relative reactivation, AChE, Sp-GA/ETP” value is on record as 0.17 ± 0.02. At hBuChE (setting [1]), the “Relative reactivation, BChE, Sp-GB” value is 0.86 ± 0.05. Besides, the “Relative reactivation, BChE, Sp-GF” value on hBuChE (setting [2]) was 0.58 ± 0.04. On hBuChE (setting [3]), the “Relative reactivation, BChE, Sp-GA/ETP” value is listed as 0.14 ± 0.01.
Regarding “N′-Cyclopropyl-2-(hydroxyimino)-N,N-dimethylacetimid-amide hydrochloride salt”, the “Relative reactivation, AChE, Sp-GB” value on hAChE (setting [6]) was found to be 0.61 ± 0.04. Further, the “Relative reactivation, AChE, Sp-GF” value at hAChE (setting [7]) worked out at 0.11 ± 0.01. Also, the “Relative reactivation, AChE, Sp-GA/ETP” value on hAChE (setting [8]) was 0.15 ± 0.01. The “Relative reactivation, BChE, Sp-GB” value at hBuChE (setting [1]) worked out at 0.73 ± 0.05. Further, the “Relative reactivation, BChE, Sp-GF” value on hBuChE (setting [2]) was 0.56 ± 0.03. For the same compound, at hBuChE (setting [3]), the “Relative reactivation, BChE, Sp-GA/ETP” value is 0.13 ± 0.03.
